In ChEMBL document CHEMBL3804818 (J Med Chem, 2016):

Target: Heat shock protein HSP 90-alpha (Homo sapiens, UniProt P07900)

Kd: 21.1 µM
Compound: COC(=O)c1c(O)cc(O)c(Cl)c1CCc1nccn1Cc1ccccc1Br
